## Binding of CDR-mutated scFvs to a peptide of the spike HR2 region

Data: MIT Lincoln Laboratory AlphaSeq set, Li et al. 2023, doi:10.1038/s41467-023-39022-2, as distributed in FLAb.

Antigen: PDVDLGDISGINAS, a 14-residue peptide of the SARS-CoV-2 spike HR2 region.

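The starting antibody came from a phage panning campaign against this peptide. This is the validation round: designs drawn from the data on random variants, tested in the same kind of assay. Group labels follow the data file (Ctrl: baseline library sampled from a position-specific scoring matrix, with some repeated check sequences; GPLM: also part of the Gaussian process libraries; Gen: genetic algorithm; Gibbs: Gibbs sampling; a sequence that several methods proposed may carry one label only). AlphaSeq pools MATa yeast showing the antibodies with MATalpha yeast showing the peptide. The frequency of each diploid, read from paired DNA barcodes, reflects how well the two displayed proteins bind. Each replicate has its own calibration line, from reference interactions of the BCL2 family. Mating was done six times.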

The variants keep the light chain, the linker and the frameworks of Ab-14 (scFv order VH, three GGGGS repeats, VL).
VH: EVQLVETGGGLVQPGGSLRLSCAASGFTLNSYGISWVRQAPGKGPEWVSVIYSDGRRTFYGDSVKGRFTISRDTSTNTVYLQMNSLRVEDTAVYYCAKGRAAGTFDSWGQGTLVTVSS
VL: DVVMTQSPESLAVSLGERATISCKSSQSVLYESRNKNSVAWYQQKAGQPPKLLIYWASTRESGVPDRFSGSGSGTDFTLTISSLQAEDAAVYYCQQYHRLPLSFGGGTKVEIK

The parent's heavy chain CDRs are GFTLNSYGIS, VIYSDGRRTFYGDSVK, GRAAGTFDS; each variant's own CDRs replace them letter for letter.
Numbers give log10(Kd / nM), so 0 is 1 nM and 3 is 1 µM. Smaller is tighter.
A mean of the replicates is given; it leaves out those without a signal.
"nd" means that the variant was in the library but no mating with the target was seen in that replicate; the authors take this as a sign of poor binding, and no number exists.
A sequence measured in both rounds can read differently, since the two assays cover different ranges.
As a blank, each scFv also met three strains without target: over all heavy chain designs, 1% of these pairings were detected, typically at 2.08 and seldom below 0.84. The control count says in how many pairings with the empty strains this scFv gave a signal, with their mean in brackets.
The authors' rule: three or more of the six replicates give a measured affinity, fewer mean a poor binder.
Of ten entries with the parent sequence, four were seen in most replicates (averages 0.34 to 2.37), three in one and three in none, so single entries are noisy.
Some sequences occur more than once in the pool; their replicates are listed entry by entry, parted by semicolons.

CDR-H1,CDR-H2,CDR-H3,group,"log10 Kd, replicates",mean log10 Kd (nM),control signals
GFELNSYGIS,VIYSDGERTFYGDSVK,GRAAGTFDS,Ctrl,1.62 / 0.82 / 0.47 / 1.88 / 1.54 / 1.46,1.30,1/18 (3.65)
GFTLNSYGIS,VIYSDGRRTFYGDFVK,GRAGGTFDL,Ctrl,nd / nd / nd / nd / nd / nd,nd,0/18
GFTLNSYGIS,VIYSDGLRTFYADSVK,GSEAGTFDS,Ctrl,1.03 / 0.77 / 0.85 / 0.64 / 0.75 / 0.59,0.77,0/18
GFDLNSYGIS,VIYSDGRRTFYGDSVK,GRATGTFDS,Ctrl,1.28 / nd / 1.84 / nd / nd / nd,1.56,0/18
GFTLNSYGIS,VIYSDGRRTFYANSVK,GRAAFTFDS,Ctrl,nd / nd / nd / nd / nd / nd,nd,0/18
GFTLNSYGIS,VIYSDGRRTFYSDSVK,GRAAGTFDY,Ctrl,nd / 3.06 / 1.63 / 1.65 / 1.33 / 1.95,1.92,1/18 (1.42)
GFTLNSYGIS,VIYADGRRTFYGDSVK,GKAAGTFDS,Ctrl+GPLM_Gen,0.03 / 0.14 / -0.26 / -0.38 / -0.50 / -0.34; 1.30 / 1.35 / 0.73 / 0.89 / 1.06 / 0.74,0.40,1/36 (2.26)
GFTLNSYGIS,VIYSDGQRTFYGDSVK,GKAKGTFDS,Ctrl,nd / nd / nd / nd / nd / nd,nd,0/18
GFCLNSYGIS,VIYSDGMRTFYGDSVK,GRAVGTFDS,Ctrl,nd / nd / nd / nd / 2.17 / nd,2.17,0/18
GFTLNSYGIS,VIYSDGRRTFYGNSVK,GNVAGTFDK,Ctrl,1.44 / 1.35 / 1.54 / 1.04 / 0.87 / 1.51,1.29,1/18 (1.69)
GFGLNSYGIS,VIYFDGRRVFYGDNVK,GRAAGTFDS,Ctrl,nd / nd / nd / nd / nd / nd,nd,0/18
GFTLNSYGYS,VIYADGRRTFYGDSVK,GRAAGLFDS,Ctrl,nd / nd / 2.32 / nd / 2.41 / nd,2.36,0/18
GFCLNEYGIS,VIYADGRRTFYGDSVK,GRAAGTFDS,Ctrl,0.79 / 0.97 / 0.95 / 0.61 / 0.69 / 0.72,0.79,0/18
GFALNSYGLS,VIYADGRRLFYGDSVK,GRATAAFDS,Ctrl,nd / nd / nd / nd / nd / nd,nd,0/18
GFNLNSYGIS,VIYSDGRRTFYGDSVK,GRAAGCFDS,Ctrl,2.16 / 2.12 / 1.59 / 1.46 / 2.13 / 1.43,1.82,1/18 (2.34)
GFTLNSYSIS,VIYSDGRRTFYGDSVK,GQAAGTADS,Ctrl,nd / nd / nd / nd / nd / nd,nd,0/18
GFTLNSYGIS,VIYSDGRRTFYGDSVK,GRACGTMDS,Ctrl,nd / nd / nd / nd / nd / nd,nd,0/18
GFKLNSYGIH,VIYSDGRRTFYGDSVK,GRAAGTFDL,Ctrl,nd / nd / nd / nd / nd / nd,nd,0/18
GFNLNLYGIS,VIYSDGRRTFYGNNVK,GRWQGTFDS,Ctrl,nd / nd / nd / nd / nd / nd,nd,1/18 (0.69)
GFTLNSEGIS,VIYSDGRRTFYGDSVK,GRASGTADD,Ctrl,nd / nd / nd / nd / nd / nd,nd,0/18
GFSLNSYGIS,VIYSDGRRTFYGDSVK,LRAAGTFDS,Ctrl,nd / nd / nd / nd / nd / nd,nd,0/18
GFSLNSYGIS,VIYSDGRRTFYGDAVK,GRLAGTFDS,Ctrl,0.44 / -0.30 / 0.71 / -0.46 / -0.07 / -0.24,0.01,0/18
GLTLNSYGIS,VIYADGRRTFYGDSVK,GRVAGTFDS,Ctrl,0.14 / 0.20 / 0.49 / -1.42 / -0.32 / 0.99,0.01,0/18
GFTMNSYGIH,VIYSDGLRTFYGDSVK,GREAGTFDS,Ctrl,nd / nd / nd / nd / nd / nd,nd,0/18
GFDLNSYGIS,VIYSDGRRTAYGDSVK,GQAAGTFDS,Ctrl+GPLM_Gibbs,nd / 0.07 / 0.67 / nd / nd / nd; 0.39 / 0.27 / 0.41 / 0.75 / 0.31 / 0.19,0.38,1/36 (-0.18)
QPTLNSYGIS,VIYSDGRRTFYTDDVK,GRAAGTFDS,Ctrl,nd / nd / nd / nd / nd / nd,nd,0/18
GFTLNSYGIS,VIYSDGRRTFYGDKVK,GRAAGTFDV,Ctrl,nd / 0.43 / nd / nd / nd / 1.22,0.83,0/18
GFTLNSYGIS,VIYSDGRRTYYGDSVK,GTVAGTFSS,Ctrl,0.43 / nd / 0.39 / -0.62 / nd / 0.26,0.12,0/18
GFTLNSYGIS,VIYSDGRRTFYGDNVK,GRAAGTFDC,Ctrl,nd / nd / 1.41 / 1.78 / nd / nd,1.59,1/18 (2.13)
GFTLNSYGIS,VIYSDGRRTFYIDSVK,ARAAGTFDS,Ctrl,nd / nd / nd / nd / nd / nd,nd,0/18